We go through 3 compounds from patent publication US20220016215A1, “GIP RECEPTOR AGONIST PEPTIDE COMPOUNDS AND USES THEREOF” (TAKEDA PHAARMACEUTICAL COMPANY LIMITED, priority 2018, published 2022).

The chains behind the UniProt entries cited, without tags or fusion partners. Residues count along the entry.
UniProt P43220, 24-463: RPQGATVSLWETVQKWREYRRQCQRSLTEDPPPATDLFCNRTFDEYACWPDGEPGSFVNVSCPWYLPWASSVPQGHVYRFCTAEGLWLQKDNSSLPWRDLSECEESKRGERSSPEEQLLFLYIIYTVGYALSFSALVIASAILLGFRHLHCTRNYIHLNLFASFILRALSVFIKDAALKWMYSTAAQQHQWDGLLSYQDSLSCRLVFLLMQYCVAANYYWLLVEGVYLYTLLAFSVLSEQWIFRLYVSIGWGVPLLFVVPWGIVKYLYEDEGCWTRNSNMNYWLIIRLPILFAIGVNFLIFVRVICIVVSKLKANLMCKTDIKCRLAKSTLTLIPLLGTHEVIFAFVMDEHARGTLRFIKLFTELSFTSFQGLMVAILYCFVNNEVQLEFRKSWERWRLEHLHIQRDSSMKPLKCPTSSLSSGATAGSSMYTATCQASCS

The structures appear in SMILES notation. Like-named read-outs stand apart in the source and are kept apart here. Marks after values point to notes of the source that are not given here. A value given as a limit tells only on which side of the number the result lay.

The target in one test is T1, human GIPR (Homo sapiens, UniProt P48546).
T1 construct: expressed in transfected cells
T1 sequence (P48546 22-466): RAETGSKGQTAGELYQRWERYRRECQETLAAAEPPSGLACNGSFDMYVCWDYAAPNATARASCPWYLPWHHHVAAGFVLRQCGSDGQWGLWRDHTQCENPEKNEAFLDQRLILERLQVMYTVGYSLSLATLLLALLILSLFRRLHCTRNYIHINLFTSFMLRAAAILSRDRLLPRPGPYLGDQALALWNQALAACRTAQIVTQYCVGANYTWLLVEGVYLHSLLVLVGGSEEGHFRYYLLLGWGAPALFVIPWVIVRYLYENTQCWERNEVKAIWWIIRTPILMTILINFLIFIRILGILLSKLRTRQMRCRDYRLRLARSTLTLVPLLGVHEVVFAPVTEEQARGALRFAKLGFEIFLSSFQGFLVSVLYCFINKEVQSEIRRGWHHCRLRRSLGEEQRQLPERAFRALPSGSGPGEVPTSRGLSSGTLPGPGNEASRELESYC
In words: Agonist activity on human GIPR, CRE-luciferase reporter assay (increase in intracellular cAMP as indicator). Type of test: cell-based. Conditions: for Selectivity Ratio (B/A): GLP1R EC50 / GIPR EC50; for EC50: hGIPR/CRE-LUC/CHO-K1 cells, 4 h incubation. On the technique in general: A reporter such as luciferase makes a cellular process visible.

In another test the target is human GLP-1R (Homo sapiens, UniProt P43220). Briefly: Agonist activity on human GLP-1R, CRE-luciferase reporter assay (increase in intracellular cAMP as indicator). Type of test: cell-based. Also on record: expressed in transfected cells. Conditions: hGLP-1R/CRE-luc/CHO-K1 cells, 4 h incubation; read-out: GLP1R EC50 nM (B).
The subject of test [1] is morphine (0.6 mg/kg, s.c.)-induced emesis in ferrets. Briefly: Morphine-induced acute emetic model in male ferrets. The following applies: for Comment: Anti-Emetic Activity (inhibition) on morphine-induced emesis: summary of the morphine experiments.
[2] abbreviates: read-out: GIPR pEC50 (converted).
The mark [3] stands for this setting: male ferrets, 30 nmol/kg s.c., morphine 0.6 mg/kg s.c. 4 hours after administration.
The mark [4] stands for this setting: ferrets, morphine 0.6 mg/kg s.c. 0.5 h after drug, 106-151 μg/kg s.c. (30 nmol/kg).
The mark [5] stands for this setting: ferrets, morphine 0.6 mg/kg s.c. 0.5 h after drug, 106-151 μg/kg s.c. (30 nmol/kg), non-responders counted as 30 min.

As to `CCCC[C@H](NC(=O)C(C)(C)NC(=O)[C@@H](NC(=O)[C@H](CO)NC(=O)[C@H](Cc1ccc(O)cc1)NC(=O)[C@H](CC(=O)O)NC(=O)[C@H](CO)NC(=O)[C@@H](NC(=O)[C@H](Cc1ccccc1)NC(=O)[C@@H](NC(=O)CNC(=O)[C@H](CCC(=O)O)NC(=O)C(C)(C)NC(=O)[C@@H](N)Cc1cc(Br)c(O)c(Br)c1)[C@@H](C)O)[C@@H](C)CC)[C@@H](C)CC)C(=O)N[C@@H](CC(=O)O)C(=O)N[C@@H](CCCCN)C(=O)N[C@H](C(=O)N[C@@H](Cc1c[nH]cn1)C(=O)N[C@@H](CCC(N)=O)C(=O)N[C@@H](CCC(N)=O)C(=O)N[C@@H](CC(=O)O)C(=O)N[C@@H](Cc1ccccc1)C(=O)N[C@H](C(=O)N[C@@H](CC(N)=O)C(=O)N[C@@H](Cc1c[nH]c2ccccc12)C(=O)N[C@@H](CC(C)C)C(=O)N[C@@H](CC(C)C)C(=O)N[C@@H](C)C(=O)N[C@@H](CCC(N)=O)C(=O)N[C@@H](CCCCN)C(=O)NCC(=O)N[C@@H](CCCCN)C(=O)N[C@@H](CCCCN)C(=O)N[C@@H](CC(N)=O)C(=O)N[C@@H](CC(=O)O)C(=O)N[C@@H](Cc1c[nH]c2ccccc12)C(=O)N[C@@H](CCCCN)C(=O)N[C@@H](Cc1c[nH]cn1)C(=O)N[C@@H](CC(N)=O)C(=O)N[C@H](C(=O)N[C@H](C(=O)N[C@@H](CCC(N)=O)C(=O)O)[C@@H](C)O)[C@@H](C)CC)C(C)C)[C@@H](C)CC` [Compound 8], at human GIPR, the “Selectivity Ratio (B/A)” value is 5,595. Moreover, the EC50 on human GLP-1R is 117 nM.

Consider `CCCCCCCCCCCCCCCC(=O)N[C@@H](CCC(=O)NCCCC[C@H](NC(=O)[C@H](CCCCN)NC(=O)[C@H](CC(=O)O)NC(=O)[C@H](CCSC)NC(=O)[C@H](C)NC(=O)[C@@H](NC(=O)[C@H](CO)NC(=O)[C@H](Cc1ccc(O)cc1)NC(=O)[C@H](CC(=O)O)NC(=O)[C@H](CO)NC(=O)[C@@H](NC(=O)[C@H](Cc1ccccc1)NC(=O)[C@@H](NC(=O)CNC(=O)[C@H](CCC(=O)O)NC(=O)C(C)(C)NC(=O)[C@@H](N)Cc1ccc(O)cc1)[C@@H](C)O)[C@@H](C)CC)[C@@H](C)CC)C(=O)N[C@@H](Cc1c[nH]cn1)C(=O)N[C@@H](CCC(N)=O)C(=O)N[C@@H](CCC(N)=O)C(=O)N[C@@H](CC(=O)O)C(=O)N[C@@H](Cc1ccccc1)C(=O)N[C@H](C(=O)N[C@@H](CC(N)=O)C(=O)N[C@@H](Cc1c[nH]c2ccccc12)C(=O)N[C@@H](CC(C)C)C(=O)N[C@@H](CC(C)C)C(=O)N[C@@H](C)C(=O)N[C@@H](CCC(N)=O)C(=O)N[C@@H](CCCCN)C(=O)NCC(=O)N[C@@H](CCCCN)C(=O)N[C@@H](CCCCN)C(=O)N[C@@H](CC(N)=O)C(=O)N[C@@H](CC(=O)O)C(=O)N[C@@H](Cc1c[nH]c2ccccc12)C(=O)N[C@@H](CCCCN)C(=O)N[C@@H](Cc1c[nH]cn1)C(=O)N[C@@H](CC(N)=O)C(=O)N[C@H](C(=O)N[C@H](C(=O)N[C@@H](CCC(N)=O)C(=O)O)[C@@H](C)CC)[C@@H](C)CC)C(C)C)C(=O)O` [Compound 5], for which the “Selectivity Ratio (B/A)” value on human GIPR is listed as 93,300. Further, the EC50 at human GIPR (read-out: GIPR EC50 nM (A)) was determined as 0.001 nM. For the same compound, the EC50 on human GIPR (setting [2]) was 0.00126 nM. Moreover, the “Ferrets in which the vomiting symptom was observed (in words)” value in test [1] (ferrets, morphine administered 4 hours after administration) is recorded as “none of the three ferrets”. Further, in test [1] (setting [3]), the Duration of emesis is given as 0.0 ± 0.0 min, the Emetic episodes was 0.0 ± 0.0, the Latency period stood at 30.0 ± 0.0 min and the “No. of animals that did not vomit” value stood at 3. Besides, the “Emetic episodes, % Inhibition of mean value” in test [1] (male ferrets, 30 nmol/kg s.c., morphine 0.6 mg/kg s.c. 4 hours after administration, vs vehicle) was “[100%]”. Moreover, the “Comment: Anti-Emetic Activity (inhibition) on morphine-induced emesis” value in test [1] (male ferrets) was found to be 100% inhibition.

With `CCCC[C@H](NC(=O)[C@H](C)NC(=O)[C@@H](NC(=O)C1(NC(=O)[C@H](Cc2ccc(O)cc2)NC(=O)[C@H](CC(=O)O)NC(=O)[C@H](CO)NC(=O)[C@@H](NC(=O)[C@H](Cc2ccccc2)NC(=O)[C@@H](NC(=O)CNC(=O)[C@H](CCC(=O)O)NC(=O)C(C)(C)NC(=O)[C@@H](N)Cc2ccccc2)[C@@H](C)O)[C@@H](C)CC)CCCC1)[C@@H](C)CC)C(=O)N[C@@H](CC(=O)O)C(=O)N[C@@H](CCCCN)C(=O)N[C@H](C(=O)N[C@@H](Cc1c[nH]cn1)C(=O)N[C@@H](CCC(N)=O)C(=O)N[C@@H](CCC(N)=O)C(=O)N[C@@H](CC(=O)O)C(=O)N[C@@H](Cc1ccccc1)C(=O)N[C@H](C(=O)N[C@@H](CC(N)=O)C(=O)N[C@@H](Cc1c[nH]c2ccccc12)C(=O)N[C@@H](CC(C)C)C(=O)N[C@@H](CC(C)C)C(=O)N[C@@H](C)C(=O)N[C@@H](CCC(N)=O)C(=O)N[C@@H](CCCCN)C(=O)NCC(=O)N[C@@H](CCCCN)C(=O)N[C@@H](CCCCN)C(=O)N[C@@H](CC(N)=O)C(=O)N[C@@H](CC(=O)O)C(=O)N[C@@H](Cc1c[nH]c2ccccc12)C(=O)N[C@@H](CCCCN)C(=O)N[C@@H](Cc1c[nH]cn1)C(=O)N[C@@H](CC(N)=O)C(=O)N[C@H](C(=O)N[C@H](C(=O)N[C@@H](CCC(N)=O)C(=O)O)[C@@H](C)O)[C@@H](C)CC)C(C)C)[C@@H](C)CC` [Compound 9], on human GIPR, the “Selectivity Ratio (B/A)” value was >100,000. The EC50 on human GIPR (setting [2]) is 0.00398 nM. The EC50 on human GLP-1R is > 1000 nM. Also, in test [1] (setting [4]), the “Emesis: Duration” value is on record as 0.0 ± 0.0 min, the “Emesis: Frequency” value was found to be 0.0 ± 0.0, the “Emesis: No. of animals (responder/used)” value is listed as 0/4 # and the “Fidget: Duration” value was 0.0 ± 0.0 min. Also, in test [1] (setting [4]), the “Fidget: Frequency” value is 0.0 ± 0.0, the “Fidget: No. of animals (responder/used)” value is on record as 0/4, the “Licking: Duration” value was 0.0 ± 0.0 min and the “Licking: Frequency” value came to 0.0 ± 0.0. In addition, in test [1] (setting [4]), the “Licking: No. of animals (responder/used)” value was 0/4 #, the “Retching: Duration” value is 0.0 ± 0.0 min, the “Retching: Frequency” value is given as 0.0 ± 0.0 and the “Retching: No. of animals (responder/used)” value is 0/4 #. For the same compound, in test [1] (setting [4]), the “Vomiting: Duration” value stood at 0.0 ± 0.0 min, the “Vomiting: Frequency” value is on record as 0.0 ± 0.0 and the “Vomiting: No. of animals (responder/used)” value was 0/4. Also, in test [1] (setting [5]), the “Emesis: Latency” value was found to be 30.0 ± 0.0 min, the “Fidget: Latency” value is reported as 30.0 ± 0.0 min, the “Licking: Latency” value turned out to be 30.0 ± 0.0 min and the “Retching: Latency” value is on record as 30.0 ± 0.0 min. Besides, the “Vomiting: Latency” value in test [1] (setting [5]) was 30.0 ± 0.0 min. Further, the “Attenuation of morphine-induced emesis (in words)” value in test [1] (male ferrets, 30 nmol/kg s.c. 30 minutes before morphine 0.6 mg/kg s.c.) is given as “completely attenuated”. Besides, in test [1] (male ferrets), the “Comment: Anti-Emetic Activity (inhibition) on morphine-induced emesis” value was 100% inhibition.
